Experimental data taken from patent publication US10973849B2, “Rhenium complexes and methods of use for treating cancer” (CORNELL UNIVERSITY, priority 2016, dated 2021).

Test system: HeLa (cervical cancer) cell line
Experiment: MTT cell viability of phosphino-Re(I) complexes in HeLa cells, dark or 365 nm light
Type: cell-based, human
Details: single concentration; for Single Dose Cell Viability (%) Light: 365 nm for 1 hour; for Single Dose Cell Viability (%) Dark: kept in the dark
Description: HeLa (cervical cancer) cell line was cultured using Dulbecco's Modified Eagle's Medium (DMEM) supplemented with 10% fetal bovine serum (FBS). A2780 (ovarian cancer) and A2780CP70 (cisplatin-resistant ovarian cancer) cell lines were cultured as monolayers with Roswell Park Memorial Institute (RPMI)-1640 culture media supplemented with 10% fetal bovine serum. All cell lines were grown in a humidified incubator at 37° C. with an atmosphere of 5% CO2. Cells were passed at 80-90% confluence, using trypsin/EDTA. Cells were tested monthly for mycoplasma contamination with the PlasmoTest™ mycoplasma detection kit from InvivoGen.
All compounds were dissolved in phosphate-buffered saline (PBS, pH 7.4) to prepare a 1-2 mM stock solution. For single dose studies, only HeLa cells were used. For both the single dose and full dose response, all cells were grown to 80-90% confluence, detached with trypsin/EDTA, seeded in 96-well plates at 2000 cells/well for HeLa cells and 4000 cells/well for A2780 and A2780CP70 cells in 100 μL of growth media, and incubated for 24 hours. The medium was removed and replaced with fresh medium (200 μL) containing a single concentration of a rhenium(I) complex or media. The cells were then incubated for 4 hours, and then the cells were dosed with 365 nm for 1 hour (one plate under the same dosing conditions was kept outside the incubator in the dark as a control). After exposure to light, the plates incubated for an additional 44 hours, the medium was removed from the wells, and (3(4,5-dimethylthiazol-2-yl)-2,5-tetrazolium bromide (MTT) in RPMI (200 μL, 1 mg/mL) was added. After 4 hours, the MTT/RPMI solution was removed, and the formazan crystals were dissolved in 200 μL of an 8:1 mixture of DMSO and pH 10 glycine buffer. The absorbance at 570 nm in each well was measured using a BioTek Synergy™ HT plate reader. Cell viability was determined by normalizing the absorbance of the treated wells to untreated wells. All compounds that had less than 50% cell viability were analyzed using a full dose response. The % viability data is an average of three independent experiments with six replicates per concentration. The same procedure was followed as above for the full dose response but instead, after 24 hours, varying concentrations of the desired compounds were added. Cell viability was again determined by normalizing the absorbance of the treated wells to untreated wells The concentration of the compound versus % viability was plotted to produce dose-response curves, which were analyzed using a logistic sigmoid function fit with MagicPlot Pro™ software. The reported IC50 values are the average of three independent experiments with six replicates per concentration level.

Substance | Single Dose Cell Viability (%) Light [%] | Single Dose Cell Viability (%) Dark [%]
Re(CO)3(dmobpy)(DAPTA) [DAPTA-dmobpy (15)] | 5.0 ± 7.0 | 76.6 ± 1.1
Re(CO)3(phen)(DAPTA) [DAPTA-phen (3)] | 6.3 ± 0.6 | 93.3 ± 0.7
Re(CO)3(bpy)(DAPTA) [DAPTA-bpy (9)] | 11.6 ± 10.1 | 97.1 ± 4.3
Re(CO)3(dmbpy)(DAPTA) [DAPTA-dmbpy (12)] | 19.6 ± 17.0 | 100.0 ± 0.6
Re(CO)3(dmphen)(DAPTA) [DAPTA-dmphen (6)] | 5.6 ± 7.9 | 98.1 ± 3.3
